Values quoted from earlier work in US4649200A, “Substituted pyrroles with opioid receptor activity” (Regents of the University of Minnesota, priority 1986, dated 1987).

System: mu receptors
Conditions: cited from earlier work

C=CCN1CC[C@]23c4c5ccc(O)c4O[C@H]2C(=O)CC[C@@]3(O)[C@H]1C5 [naloxone]
potency at mu receptors compared with kappa: much greater potency at mu receptors
